Curated experimental data: water solubility values

Values as listed in the OPERA 2.9 repository of K. Mansouri.

Water solubility is log10 of mol/L, nominally at 25 °C; higher is more soluble. "–" marks a cell with nothing listed here.

| SMILES | name | log solubility (log10 mol/L) |
|---|---|---|
| Cc1cc(C(F)(C(F)(F)F)C(F)(F)F)ccc1NC(=O)c1ccccc1/C(O)=N/C(C)(C)CS(C)=O (stereo partly drawn) | – | -4.123 |
| NS(=O)(=O)c1ccccc1 | Benzenesulfonamide | -1.56 |
| COc1ccc([C@@H]2OC[C@H]3[C@@H]2CO[C@@H]3c2ccc(O[C@@H]3O[C@H](CO)[C@@H](O)[C@H](O)[C@H]3O)c(OC)c2)cc1OC | Phillyrin | -3.126 |
| CC1(C)[C@H]2CC=C(CCO)[C@@H]1C2 | (-)-Nopol | -2.698 |
| CCOC(=O)c1ccc(C)cc1O | Benzoic acid, 2-hydroxy-4-methyl-, ethyl ester | -3.423 |
| C[C@@H]1C[C@H]2[C@@H]3CCC4=CC(=O)C=C[C@]4(C)[C@@]3(F)[C@@H](O)C[C@]2(C)[C@H]1C(=O)CO | Desoximetasone | -4.084 |
| O=C(OCCc1ccccc1)c1ccccc1O | Phenethyl salicylate | -4.489 |
| COC(=O)COc1nc(F)c(Cl)c(N)c1Cl | – | -3.967 |
| CC(O)(C(=O)O)c1ccccc1 (stereo not given) | Atrolactic acid | -0.893 |
| COc1ccccc1NC(=O)CC(C)=O | N-(2-Methoxyphenyl)-3-oxobutanamide | -1.806 |
| O=C(c1ccc(O)cc1)c1ccc(Cl)cc1 | 4-Hydroxy-4'-chlorobenzophenone | -2.834 |
| CCCCCCCCCCCCOC(=O)/C=C/C(=O)OCCCCCCCCCCCC | 1,4-Didodecyl (2E)-2-butenedioate | -6.48 |
| CSc1ccc(C(=O)c2[nH]c(=O)[nH]c2C)cc1 | Enoximone | -3.561 |
| C[N+](C)(CCCNS(=O)(=O)CCC(F)(F)C(F)(F)C(F)(F)C(F)(F)C(F)(F)C(F)(F)F)CC(=O)[O-] | 6:2 Fluorotelomer sulfonamide betaine | -4.057 |
| N=C(N)NC(=N)NCCc1ccccc1 | Phenformin | -2.947 |
| CC1=NN(c2ccccc2)C(=O)C1=CC1C(=O)N(c2ccccc2)N=C1C (stereo not given) | – | -7.882 |
| CC[C@H]1OC(=O)[C@H](C)C(=O)[C@H](C)[C@@H](O[C@@H]2O[C@H](C)C[C@H](N(C)C)[C@H]2O)[C@](C)(OC)C[C@@H](C)C(=O)[C@H](C)[C@H]2N(CCCCn3cnc(-c4cccnc4)c3)C(=O)O[C@]12C | Telithromycin | -4.458 |
| CC(SC(C)C(N)=O)C(N)=O (stereo not given) | 2,2'-sulfanediyldipropanamide | -0.924 |
| O=C1CCc2cc(OCCCCc3nnnn3C3CCCCC3)ccc2N1 | Cilostazol | -4.057 |
| Nc1cc([N+](=O)[O-])cc(S(=O)(=O)O)c1O | 6-Amino-4-nitro-1-phenol-2-sulfonic acid | -1.766 |
| C[C@@H]1C[C@H]2[C@@H]3CCC4=CC(=O)CC[C@]4(C)[C@H]3CC[C@]2(C)[C@H]1C(=O)CO | 21-Hydroxy-16 alpha-methyl-4-pregnene-3,20-dione | -3.838 |
| O=C(O)c1cc(Cn2nnc(C(F)(F)F)n2)nn1-c1ncccc1Cl | – | -2.623 |
| CCOC(=O)c1ccc(C)cc1 | Ethyl 4-methylbenzoate | -2.839 |
| Cc1ncc(COP(=O)(O)O)c(C=O)c1O | Pyridoxal phosphate | -0.946 |
| CCCCCCC(O)CCCCCCCCCCC(=O)NCc1cccc(CNC(=O)CCCCCCCCCCC(O)CCCCCC)c1 (stereo not given) | – | -6.04 |
| O=C1c2ccccc2C(=O)C1c1nc2ccccc2cc1O | C.I. Solvent Yellow 114 | -8 |
| CCCCOCCOC(=O)CCCOc1ccc(Cl)cc1Cl | 2,4-DB 2-butoxyethyl ester | -6.09 |
| CCCC(=O)OCOc1ccccc1C(N)=O | (2-Carbamoylphenoxy)methyl butyrate | -1.977 |
| O=C(O)C(F)(F)C(F)(F)C(F)(F)C(F)(F)C(F)(F)C(F)(F)C(F)(F)C(F)(F)C(F)(F)C(F)(F)C(F)(F)F | Perfluorododecanoic acid | -6.072 |
| CCC1CCCCN1 (stereo not given) | Piperidine, 2-ethyl- | -0.345 |
| CCCCC/C(C=O)=C\c1ccc(C)cc1 | (2E)-2-[(4-Methylphenyl)methylene]heptanal | -4.231 |
| Cn1c(=O)c2c(c(=O)n(C)c(=O)n2C)n(C)c1=O | – | -2.939 |
| CC(=O)Nc1ccc(I)cc1 | Acetamide, N-(4-iodophenyl)- | -3.25 |
| Cc1csc(=O)[nH]1 | 4-Methyl-1,3-thiazol-2(3H)-one | -0.66 |
| Cc1cccc(Nc2ccncc2S(=O)(=O)NC(=O)NC(C)C)c1 | Torsemide | -3.767 |
| CCCCNc1ccc2c3c(cccc13)C(=O)N(CCCC)C2=O | Solvent Yellow 43 | -6.806 |
| C[C@@H]1C[C@H]2[C@@H]3C[C@H](F)C4=CC(=O)C=C[C@]4(C)[C@H]3[C@@H](O)C[C@]2(C)[C@H]1C(=O)CO | Fluocortolone | -3.266 |
| CC(=O)CC(C)(C)c1ccccc1 | 2-Pentanone, 4-methyl-4-phenyl- | -2.338 |
| COc1ccc(NC(=O)c2cc3ccccc3cc2O)cc1 | 2-Naphthalenecarboxamide, 3-hydroxy-N-(4-methoxyphenyl)- | -5.263 |
| O=C(O)c1ccnc(C(=O)O)c1C(=O)O | Pyridine-2,3,4-tricarboxylic acid | -1.245 |

Excerpt, the final 2 entries:

{"smiles": "COc1ccc(NC(=O)c2cc3ccccc3cc2O)cc1", "name": "2-Naphthalenecarboxamide, 3-hydroxy-N-(4-methoxyphenyl)-", "log solubility (log10 mol/L)": "-5.263"}
{"smiles": "O=C(O)c1ccnc(C(=O)O)c1C(=O)O", "name": "Pyridine-2,3,4-tricarboxylic acid", "log solubility (log10 mol/L)": "-1.245"}

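The numbers are reported measurements, compiled and curated for the OPERA QSAR suite. A listed value is a point estimate from one report or more. Method, purity and exact conditions of the single measurements are not given. Where a salt, mixture or single isomer is drawn, the source does not say that exactly this form was tested. Unmarked limits or estimates from the upstream databases cannot be ruled out.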